Experimental data from PubChem BioAssay AID1481 (The Scripps Research Institute Molecular Screening Center, 2009).
Only a part is listed here, and it is no random draw. Some results for these compounds are left out of this collection, so the calls shown say nothing about other tests. Activity calls are given as the source filed them. Rule as the data show it: active = inhibition above about 15%; inactive = the rest.

The chains behind the UniProt entries cited, without tags or fusion partners.
UniProt P55072, whole entry: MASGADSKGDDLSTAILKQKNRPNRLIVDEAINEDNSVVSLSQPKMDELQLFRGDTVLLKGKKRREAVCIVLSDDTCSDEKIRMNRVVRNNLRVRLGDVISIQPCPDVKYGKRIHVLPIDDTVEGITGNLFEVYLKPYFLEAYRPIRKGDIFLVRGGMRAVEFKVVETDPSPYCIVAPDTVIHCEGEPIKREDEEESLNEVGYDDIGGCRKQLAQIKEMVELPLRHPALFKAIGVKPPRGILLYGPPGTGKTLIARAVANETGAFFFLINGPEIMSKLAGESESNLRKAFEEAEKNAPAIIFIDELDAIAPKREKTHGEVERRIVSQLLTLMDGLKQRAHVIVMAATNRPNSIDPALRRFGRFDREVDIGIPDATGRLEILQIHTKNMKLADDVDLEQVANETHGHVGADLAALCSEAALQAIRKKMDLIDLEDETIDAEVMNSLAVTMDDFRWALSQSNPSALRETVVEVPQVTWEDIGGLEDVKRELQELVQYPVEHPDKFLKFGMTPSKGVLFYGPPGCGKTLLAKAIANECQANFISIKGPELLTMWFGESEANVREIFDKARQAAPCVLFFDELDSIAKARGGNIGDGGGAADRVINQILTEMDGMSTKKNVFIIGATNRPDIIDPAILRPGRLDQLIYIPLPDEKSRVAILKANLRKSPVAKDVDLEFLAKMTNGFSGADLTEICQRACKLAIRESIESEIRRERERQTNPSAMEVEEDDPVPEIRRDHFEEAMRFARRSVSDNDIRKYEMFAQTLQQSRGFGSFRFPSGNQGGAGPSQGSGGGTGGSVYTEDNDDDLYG

biological target: Transitional endoplasmic reticulum ATPase (Homo sapiens) (UniProt P55072); assay: p97 ATP hydrolysis blockers – biochemical, primary screen (AID 1481); conditions: recombinant p97 ATPase, Kinase-Glo ATP luminescence, 3 h; at 8 µM; stronger effect = higher value;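 also: 0% = DMSO vehicle and 100% = wells lacking enzyme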

SMILES	inhibition
CN(C)C1CCCC1OC(=O)C(O)(c1ccccc1)c1ccccc1 (stereo unspecified)	inactive: 3.82%
Cc1ccccc1C(=O)NCC1(N2CCCCC2)CCCCC1	inactive: -5.74%
CCN1CCCC(OC(=O)C2(O)c3ccccc3C=Cc3ccccc32)C1 (stereo unspecified)	inactive: 2.42%
C=CCN1CCN(CCOC(=O)C(O)(c2ccccc2)c2ccccc2)CC1	inactive: -0.04%
O=C(NCC1(N2CCCCC2)CCCCC1)c1cc([N+](=O)[O-])ccc1Cl	inactive: 1.37%
CCN(CC)CC(C)C(C)OC(=O)C(O)(c1ccccc1)c1ccccc1 (stereo unspecified)	inactive: 5.1%
CC(C)N1C(=O)CC2(CCN(CCOC(=O)C(O)(c3ccccc3)c3ccccc3)CC2)C1=O	inactive: 1.57%
O=C(OC1CN2CCC1CC2)C(CO)(c1ccccc1)c1ccccc1 (stereo unspecified)	inactive: -2.57%
CN(C)c1cccc(C(=O)NCC2(N(C)C)CCCCC2)c1	inactive: 1.26%
COc1ccc(Br)c(C(=O)NCC2(N3CCCCC3)CCCCC2)c1	inactive: 8.33%
COc1cccc(C(=O)NCC2(N3CCCCC3)CCCCC2)c1	inactive: 2.74%
